In the assay the target is T1, immobilized ELAM-1 (Homo sapiens, UniProt P16581).
T1 construct: truncated form comprising the complete extracellular domain (amino acids 1 through 554); made in house
T1 sequence (P16581 22-554): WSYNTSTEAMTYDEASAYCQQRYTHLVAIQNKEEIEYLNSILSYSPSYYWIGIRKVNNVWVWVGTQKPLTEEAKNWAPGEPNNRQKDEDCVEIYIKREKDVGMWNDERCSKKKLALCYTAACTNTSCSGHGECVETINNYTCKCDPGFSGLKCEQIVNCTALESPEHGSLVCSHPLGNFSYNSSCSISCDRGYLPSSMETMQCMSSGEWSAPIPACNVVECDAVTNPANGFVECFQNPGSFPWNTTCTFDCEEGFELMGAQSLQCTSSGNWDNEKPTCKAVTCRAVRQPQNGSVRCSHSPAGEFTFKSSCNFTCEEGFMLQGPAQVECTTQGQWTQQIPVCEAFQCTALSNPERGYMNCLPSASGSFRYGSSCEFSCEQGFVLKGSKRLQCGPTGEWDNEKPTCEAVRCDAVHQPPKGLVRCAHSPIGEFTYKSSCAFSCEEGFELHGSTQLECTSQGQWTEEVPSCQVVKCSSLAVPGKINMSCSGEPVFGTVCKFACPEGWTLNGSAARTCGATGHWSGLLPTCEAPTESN
It is filed as cell-based. As to conditions: compound at about 200 μM; FIG. 1. As for the experimental part:
By comparing test wells with control wells (no receptor), one can determine whether a peptide binds to ELAM-1 specifically. Peptides found to bind specifically to ELAM-1 were then synthesized as the free peptide (no phage) and tested in an HL60 cell adhesion competition assay. The competition assay was carried out similarly to the ELISA, except that labeled HL60 cells were added in addition to the peptide (the control wells were typically of at least two types: (1) no immobilized ELAM-1; and (2) no peptide; see the Examples). Peptides that block the binding of labeled HL60 cells to ELAM-1 are preferred compounds of the invention. […] The assay requires HL60 cells labeled with tritiated thymidine. […] The cells are then placed in a T75 flask and incubated at 37° C. for 24 hours. The cells are then collected by centrifugation, washed twice with RPMI/HEPES/0.1% FCS, and resuspended in the same solution at a concentration of about one to two million cells per mL. About 100 μL of this cell preparation are used per well of a 96-well microtiter dish in the assay. […] After this incubation, aliquots were removed from each well and placed in scintillation vials; scintillation fluid was added to each vial; and the radioactivity in each aliquot was quantitated by LS counting. […]

With monofucosyl monosialyllactose [SLe^x], the “blocking of HL60 cell binding, relative to binding in the absence of added compound” value is reported as “did not exhibit significant blocking”.

The values above are taken from patent US5648458A, “Peptides and compounds that bind to ELAM-1” (Affymax Technologies N.V., priority 1995, dated 1997).
